Measured values published in patent US20250163038A1, “CBL-B MODULATORS AND USES THEREOF” (Nimbus Clio, Inc., priority 2021, published 2025).

Protein sequences, listed by entry. Tags and fused reporters are not part of them. Residues count along the entry.
UniProt P22681, 47-435 limits assumed: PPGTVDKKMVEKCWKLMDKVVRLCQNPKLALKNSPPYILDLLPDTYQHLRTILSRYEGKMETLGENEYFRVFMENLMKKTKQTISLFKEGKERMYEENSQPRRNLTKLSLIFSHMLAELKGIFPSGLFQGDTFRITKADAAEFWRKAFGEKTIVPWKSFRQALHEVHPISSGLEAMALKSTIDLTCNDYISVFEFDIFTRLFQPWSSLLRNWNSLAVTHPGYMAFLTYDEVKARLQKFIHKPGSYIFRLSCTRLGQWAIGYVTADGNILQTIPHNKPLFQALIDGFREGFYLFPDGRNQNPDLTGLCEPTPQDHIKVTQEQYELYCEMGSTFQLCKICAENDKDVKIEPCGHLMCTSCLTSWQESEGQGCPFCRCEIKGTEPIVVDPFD
UniProt Q13191, 36-427 limits assumed: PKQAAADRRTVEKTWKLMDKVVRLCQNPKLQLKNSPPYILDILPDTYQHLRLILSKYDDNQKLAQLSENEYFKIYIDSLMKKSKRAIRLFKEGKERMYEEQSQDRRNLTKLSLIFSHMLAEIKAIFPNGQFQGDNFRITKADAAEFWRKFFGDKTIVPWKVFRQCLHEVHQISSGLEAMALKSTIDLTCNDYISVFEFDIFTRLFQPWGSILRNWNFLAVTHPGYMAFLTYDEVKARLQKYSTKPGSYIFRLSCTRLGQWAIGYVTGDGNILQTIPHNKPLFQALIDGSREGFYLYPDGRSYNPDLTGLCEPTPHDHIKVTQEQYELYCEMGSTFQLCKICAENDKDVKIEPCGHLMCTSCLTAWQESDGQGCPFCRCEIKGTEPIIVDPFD

Columns and labels:
[1] = target: Recombinant human c-Cbl (aa 47-435) (Homo sapiens, UniProt P22681); assay: c-Cbl Biochemical Assay (TR-FRET); conditions: read-out: TR-FRET hcCbl IC50; hc-Cbl Biochemical Assay (TR-FRET)
[2] = system: Jurkat (clone E6-1) cells with NFAT luciferase reporter; assay: Jurkat reporter assay (NFAT Luciferase); assay type: cell-based; conditions: read-out: Jurkat NFAT EC50, anti-CD3 stimulation, 6 hr
[3] = target: Recombinant human Cbl-b (aa 36-427) (Homo sapiens, UniProt Q13191); assay: Cbl-b Biochemical Assay (TR-FRET); conditions: read-out: TR-FRET hCbl-b IC50

| Compound | IC50 [1] | EC50 [2] | IC50 [3] |
| --- | --- | --- | --- |
| COCCOCCNCc1cc(C(F)(F)F)c2oc(-c3cccc(-c4ccc(F)cc4-c4nncn4C)c3)nc2c1 | 0.2 to 1 µM | 1 to 10 µM | < 0.2 µM |
| COc1ccc([N+](=O)[O-])c(N)c1C(F)(F)F | 10 to 50 µM |  | 10 to 50 µM |
